# Measured values taken from patent US8729088B2, “Toll-like receptor modulators and treatment of diseases” (The Regents of the University of California, priority 2009, dated 2014).
# Entries after “also recorded” stand apart in the source; their conditions may differ.
# Experiments:
# [1] = tested on: C57BL/6 mice immunized with ovalbumin (OVA); test: Adjuvanticity: subcutaneous immunization with OVA mixed with TLR7 conjugates; format: in vivo, mouse
# Experimental: Anti-OVA antibodies of the IgG subclasses (and in some embodiments specifically IgG1 and IgG2) were measured by ELISA, as described in Cho, H. J et al., “Immunostimulatory DNA-based vaccines induce cytotoxic lymphocyte activity by a T-helper cell-independent mechanism” [see comments], Nat Biotechnol 18, 509-14 (2000), and the results presented in FIGS. 5A and 5B. Each ELISA plate contained a titration of a previously quantitated serum to generate a standard curve. The titer of this standard was calculated as the highest dilution of serum that gave an absorbance reading that was double the background. The various sera samples were tested at a 1:100 dilution. The results are expressed in units per mL, calculated based on the units/mL of the standard serum, and represent the mean±SEM of five animals in each group. * and T denote P<0.05 and P<0.01 by One-way ANOVA compared to the mice immunized with OVA mixed with vehicle, respectively.
# Spleenocytes were prepared from the harvested spleens. […] The levels of IFNγ in the culture supernatants were measured by ELISA (BD Bioscience PharMingen) as per the manufacturer's instructions (Kobayashi, H et al., Prepriming: a novel approach to DNA-based vaccination and immunomodulation”, Springer Semin Immunopathol 22:85-96 (2000), and the results illustrated in FIG. 5C. Average total spleen cell number in each group were calculated and compared to the PBS-immunized groups to monitor the spleen cell proliferation. Data are mean±SEM of five mice and are representative of three independent experiments.
# The efficiency of adjuvanticity was assessed by measurement of the levels and isotypes of the antigen-specific IgG that the vaccine induces, in particular IgG1 and IgG2 (Mosmann, T. R., and Coffman, R. L., ‘TH1 and TH2 cells: different patterns of lymphokine secretion lead to different functional properties’, Annual Review Immunology 7:145-73 (1989)). The groups of C57BL/6 mice (n=5 animals per group) were subcutaneously immunized with OVA (ovalbumin) mixed with TLR7 conjugates. ISS-ODN was used as a potent Th1 adjuvant positive control. […]
# TLR7 [2] = biological target: T1, TLR7 (Mus musculus, UniProt P58681); test: Cytokine induction in BMDM from wild type and TLR7 deficient mice; format: cell-based; set-up: endogenous in cells; host or cells: primary BMDM from C57BL/6 mice; conditions: wild type BMDM
# T1 sequence (P58681 27-1050): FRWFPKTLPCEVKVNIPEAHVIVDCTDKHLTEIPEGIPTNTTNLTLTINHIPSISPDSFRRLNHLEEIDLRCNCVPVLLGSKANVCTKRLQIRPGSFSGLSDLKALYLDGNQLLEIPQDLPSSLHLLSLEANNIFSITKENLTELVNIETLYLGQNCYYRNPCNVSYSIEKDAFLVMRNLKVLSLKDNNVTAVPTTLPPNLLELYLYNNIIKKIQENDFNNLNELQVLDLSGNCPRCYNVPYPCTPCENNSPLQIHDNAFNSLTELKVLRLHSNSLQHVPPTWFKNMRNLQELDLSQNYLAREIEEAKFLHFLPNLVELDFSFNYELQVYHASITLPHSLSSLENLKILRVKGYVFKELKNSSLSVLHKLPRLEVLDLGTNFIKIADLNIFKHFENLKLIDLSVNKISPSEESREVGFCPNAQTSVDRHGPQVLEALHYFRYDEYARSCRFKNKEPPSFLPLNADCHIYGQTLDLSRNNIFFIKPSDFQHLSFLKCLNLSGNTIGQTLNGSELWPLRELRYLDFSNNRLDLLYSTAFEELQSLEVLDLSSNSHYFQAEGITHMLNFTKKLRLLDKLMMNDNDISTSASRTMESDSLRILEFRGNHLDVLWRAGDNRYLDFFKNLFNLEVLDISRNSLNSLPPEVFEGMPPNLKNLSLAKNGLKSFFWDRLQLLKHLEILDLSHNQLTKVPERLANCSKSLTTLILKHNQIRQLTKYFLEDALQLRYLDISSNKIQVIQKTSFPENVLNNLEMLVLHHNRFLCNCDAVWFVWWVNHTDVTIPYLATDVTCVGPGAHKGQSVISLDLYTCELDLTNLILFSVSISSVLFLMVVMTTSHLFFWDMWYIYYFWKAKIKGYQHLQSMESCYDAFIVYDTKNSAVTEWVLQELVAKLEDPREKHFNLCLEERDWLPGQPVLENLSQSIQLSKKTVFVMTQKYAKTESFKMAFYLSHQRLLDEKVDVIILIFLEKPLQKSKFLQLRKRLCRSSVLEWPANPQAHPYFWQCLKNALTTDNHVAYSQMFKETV
# Experimental: (§1) In vitro measurements of cytokine induction were performed using the mouse leukemic monocyte macrophage cell line, RAW264.7. […] BMDM were prepared from C57BL/6 and TLR7 deficient mice as described in Wu, C. C et al., (2007) “Immunotherapeutic activity of a conjugate of a Toll-like receptor 7 ligand”, Proc Natl Acad Sci USA 104, 3990-5.
# (§2) In general, RAW264.7 cells or BMDM were incubated with various concentrations of conjugates for 18 hours at 37° C., 5% CO2 and culture supernatants were collected. The levels of cytokines (IL-6, IL-12 or TNF-α in the supernatants were determined by ELISA (BD Biosciences Pharmingen, La Jolla, Calif.) (Cho, H. J et al., “Immunostimulatory DNA-based vaccines induce cytotoxic lymphocyte activity by a T-helper cell-independent mechanism” [see comments], Nat Biotechnol 18, 509-14 (2000)), and the results presented in FIG. 2A-D. Data are mean±SEM of triplicates and are representative of three independent experiments. Minimum detection levels of these cytokines were 15 pg/mL.
# TLR7 [3] = test: as above; format: cell-based, mouse; conditions: BMDM from TLR7 deficient mice
# Experimental: as §1, §2
# TLR7 [4] = biological target: T1, TLR7; set-up: endogenous in cells; host or cells: RAW264.7 (ATCC); primary BMDM from C57BL/6 mice; conditions: cited from earlier work
substance,measurement,setting,value
"4a: TLR7 agonist (UC1V150) covalently coupled with mouse serum albumin (MSA), conjugation ratio 5:1 [Compound 4a]",onset of induction of anti-OVA antibodies,"[1]; OVA mixed with conjugate, s.c., days 0 and 7",14 days
same,OVA-specific IFNγ secretion by spleen cells,[1]; day 56 splenocytes restimulated with OVA,enhanced; also recorded: maintained relatively high levels
same,anti-OVA IgG2a levels,"[1]; serum, ELISA, days 0-56",subsequently declined; also recorded: rapid elevation; also recorded: declined three weeks after the last immunization
same,"agonist activity (IL-12, IL-6)",TLR7 [2],active
same,IL-12 and IL-6 induction,TLR7 [3],little or no IL-12 and IL-6
same,potency in cytokine induction compared to unconjugated drug (SM),"TLR7 [4]; in vitro and in vivo, Wu et al. 2007",≥ 10
same,potency as a cytokine inducer compared to the unconjugated agonist,TLR7 [4]; previously shown,100 fold
